Source: US20110015274A1, “FORM OF AN […] DERIVATIVE” (priority 2009, published 2011)

What was measured:
[1] = mesylate; for CI (Compressibility Index or Carr Index): 100×[(ρtapped−ρbulk)/ρtapped]; for HR (Hausner ratio): tapped density divided by bulk density
[2] = heating at 80° C. for 72, 96 or 144 hours, and refluxing in isopropanol for 30 hours; cited from earlier work

SMILES: C#CCN[C@@H]1CCc2ccccc21.CS(=O)(=O)O [Example 1, R-(+)-N-propargyl-1-aminoindan mesylate]
- CI (Compressibility Index or Carr Index) [1]: 30
- HR (Hausner ratio) [1]: 1.43

SMILES: C#CCN[C@@H]1CCc2ccccc21.CS(=O)(=O)O [Example 2, R-(+)-N-propargyl-1-aminoindan mesylate]
- CI (Compressibility Index or Carr Index) [1]: 29
- HR (Hausner ratio) [1]: 1.41

SMILES: C#CCN[C@@H]1CCc2ccccc21.CS(=O)(=O)O [Example 3, R-(+)-N-propargyl-1-aminoindan mesylate]
- CI (Compressibility Index or Carr Index) [1]: 26
- HR (Hausner ratio) [1]: 1.35

SMILES: C#CCN[C@@H]1CCc2ccccc21.CS(=O)(=O)O [Example 4, R-(+)-N-propargyl-1-aminoindan mesylate]
- CI (Compressibility Index or Carr Index) [1]: 30
- HR (Hausner ratio) [1]: 1.43

SMILES: C#CCN[C@@H]1CCc2ccccc21.CS(=O)(=O)O [Reference Example 1, R-(+)-N-propargyl-1-aminoindan mesylate, reference compound]
- CI (Compressibility Index or Carr Index) [1]: 42
- HR (Hausner ratio) [1]: 1.72

SMILES: C#CCN[C@@H]1CCc2ccccc21.CS(=O)(=O)O [Reference Example 2, R-(+)-N-propargyl-1-aminoindan mesylate, reference compound]
- CI (Compressibility Index or Carr Index) [1]: 40
- HR (Hausner ratio) [1]: 1.67

SMILES: C#CCN[C@@H]1CCc2ccccc21.CS(=O)(=O)O [rasagiline mesylate, R-(+)-N-propargyl-1-aminoindan mesylate]
- Chemical stability [2]: excellent chemical stability
